Measured values published in patent US20260364081A1, “METHOD FOR PREVENTING OR TREATING ATTENTION DEFICIT HYPERACTIVITY DISORDER (ADHD) AND FOR PREPARING A COMPOUND OR SALT THEREOF” (ASTROGEN, INC., priority 2023, published 2026).
Structures can show the parent of a compound that is named as a salt.

Assay: PAMPA-BBB permeability assay
Type: in vitro ADME
Details: donor 100 uM in DPBS, 37 °C, 6 hours, LC-MS/MS, mean (n=3); for Recovery: 360 min, 100 µM

| Compound | Transport fraction (% T) [%] | Recovery [%] | other results |
| --- | --- | --- | --- |
| CCOc1ccccc1OC[C@@H]1CNCCO1 [Example 6, (S)-viloxazine hydrochloride] |  |  | Transport fraction (% T) (hydrochloride): 14.38%; Recovery (hydrochloride): 81.3% |
| CCOc1ccccc1OC[C@@H]1CNCCO1 [Example 7, (S)-viloxazine sulfate] | 15.65 | 92.0 |  |
| CCOc1ccccc1OC[C@@H]1CNCCO1 [Example 8, (S)-viloxazine hydrobromide] |  |  | Transport fraction (% T) (hydrobromide): 15.57%; Recovery (hydrobromide): 91.1% |

Continued, in another order:

| Transport fraction (% T) [%] | Recovery [%] | Compound | other results |
| --- | --- | --- | --- |
| 16.43 | 103.8 | CCOc1ccccc1OC[C@@H]1CNCCO1 [Example 10, (S)-viloxazine acetate] |  |
| 15.05 | 94.3 | CCOc1ccccc1OC[C@@H]1CNCCO1 [Example 17, (S)-viloxazine (S)-ibuprofenate] |  |
